Target: human PD-1 stably expressed on Jurkat/IL-2 reporter cells (Jurkat/PD-1 cells) (human)
Assay: flow cytometry, Jurkat/PD-1 cells

| Binder | Fold Increase over WT PD-L1 ECD-Fc | MFI at 20 nM conc. |
| --- | --- | --- |
| variant PD-L1 ECD-Fc K160M, R195G (Fc fusion, not shown: a dimerising Fc or GST) not shown | 0.8 fold | 3930 MFI |
| variant PD-L1 ECD-Fc N45D, K144E (Fc fusion, not shown: a dimerising Fc or GST) not shown | 19.9 fold | 99700 MFI |
| variant PD-L1 ECD-Fc N45D, P198S (Fc fusion, not shown: a dimerising Fc or GST) not shown | 23.5 fold | 117000 MFI |
| variant PD-L1 ECD-Fc N45D (Fc fusion, not shown: a dimerising Fc or GST) not shown | 19.1 fold | 95600 MFI |

Continued, values first:

| Fold Increase over WT PD-L1 ECD-Fc | MFI at 20 nM conc. | Binder |
| --- | --- | --- |
| 24.5 fold | 122000 MFI | variant PD-L1 ECD-Fc N45D, S131F (Fc fusion, not shown: a dimerising Fc or GST) not shown |
| 25.7 fold | 129000 MFI | variant PD-L1 ECD-Fc N45D, R195S (Fc fusion, not shown: a dimerising Fc or GST) not shown |
| 30.4 fold | 152000 MFI | variant PD-L1 ECD-Fc N45D, V58D (Fc fusion, not shown: a dimerising Fc or GST) not shown |
| 1.5 fold | 7700 MFI | variant PD-L1 ECD-Fc V129D, R195S (Fc fusion, not shown: a dimerising Fc or GST) not shown |
| 24.3 fold | 122000 MFI | variant PD-L1 ECD-Fc N45D, R195G (Fc fusion, not shown: a dimerising Fc or GST) not shown |
| 24.4 fold | 122000 MFI | variant PD-L1 ECD-Fc N45D, P198T (Fc fusion, not shown: a dimerising Fc or GST) not shown |
